How the values were obtained:
[1] = biological target: Prmt1 (Mus musculus, UniProt Q9JIF0); test: biochemical
[2] = biological target: PRMT1 (Homo sapiens, UniProt Q99873); test: biochemical

Chains of the proteins cited; added tags and fusions are not shown.
UniProt Q9JIF0, whole entry: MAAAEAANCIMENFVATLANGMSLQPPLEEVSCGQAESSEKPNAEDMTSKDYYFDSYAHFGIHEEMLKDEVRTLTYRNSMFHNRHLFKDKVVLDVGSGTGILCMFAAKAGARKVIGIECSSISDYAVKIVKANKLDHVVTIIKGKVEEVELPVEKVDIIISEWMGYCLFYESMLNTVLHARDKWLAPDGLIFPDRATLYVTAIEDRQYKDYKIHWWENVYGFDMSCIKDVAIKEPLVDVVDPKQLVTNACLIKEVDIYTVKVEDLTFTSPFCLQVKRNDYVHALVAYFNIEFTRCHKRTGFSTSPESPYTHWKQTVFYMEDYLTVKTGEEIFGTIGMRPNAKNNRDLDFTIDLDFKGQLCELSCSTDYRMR
UniProt Q99873, whole entry: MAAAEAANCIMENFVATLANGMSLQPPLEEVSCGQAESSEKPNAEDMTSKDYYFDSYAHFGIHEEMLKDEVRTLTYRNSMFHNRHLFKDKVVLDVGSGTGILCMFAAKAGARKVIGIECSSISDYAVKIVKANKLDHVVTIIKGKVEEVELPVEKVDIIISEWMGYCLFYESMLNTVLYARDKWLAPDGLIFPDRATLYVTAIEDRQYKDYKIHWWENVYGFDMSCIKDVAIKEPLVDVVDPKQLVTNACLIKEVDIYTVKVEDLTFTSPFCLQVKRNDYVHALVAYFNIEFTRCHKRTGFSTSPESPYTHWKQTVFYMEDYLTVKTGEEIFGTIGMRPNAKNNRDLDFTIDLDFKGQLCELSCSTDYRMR

## C[S+](CC[C@H](N)C(=O)[O-])C[C@H]1O[C@@H](n2cnc3c(N)ncnc32)[C@H](O)[C@@H]1O (some centres unmarked) [SAM]
[1]
  Kd: ~36 µM
[2]
  Kd: ~26 µM

— PMC11192564 (Cell metabolism, 2023)
